Literature values, collected in patent US4772606A, “Purine derivatives” (Warner-Lambert Company, priority 1985, dated 1988).

System: PNP
Conditions: reported by R. Parks et al.; cited from earlier work

Compound: Nc1nc2nc(N)[nH]c2c(=O)[nH]1 [8-Aminoguanine]
- PNP-activity: PNP-activity
